Test results: patent US11384060B2, “Amide compounds and use thereof” (ALPHALA CO., LTD., priority 2017, dated 2022)

Protein sequences, listed by entry. Tags and fused reporters are not part of them. Residues count along the entry.
UniProt P47871, 26-477 limits assumed: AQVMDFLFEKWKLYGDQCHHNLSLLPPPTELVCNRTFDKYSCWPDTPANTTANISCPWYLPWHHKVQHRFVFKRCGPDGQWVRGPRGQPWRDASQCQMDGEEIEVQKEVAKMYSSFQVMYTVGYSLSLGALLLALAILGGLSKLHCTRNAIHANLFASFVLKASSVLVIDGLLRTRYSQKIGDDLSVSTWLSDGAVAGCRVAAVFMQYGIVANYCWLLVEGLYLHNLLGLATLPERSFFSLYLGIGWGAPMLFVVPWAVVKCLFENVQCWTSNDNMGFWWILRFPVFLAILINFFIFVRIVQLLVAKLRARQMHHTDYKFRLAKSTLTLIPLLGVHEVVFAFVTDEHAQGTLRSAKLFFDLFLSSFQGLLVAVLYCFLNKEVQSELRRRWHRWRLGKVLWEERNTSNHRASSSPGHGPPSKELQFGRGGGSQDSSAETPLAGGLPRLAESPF

What was measured:
glucagon receptor (GCGR) = glucagon receptor (GCGR) (Homo sapiens, UniProt P47871); assay: I125-glucagon binding assay (competition, GCGR membrane fractions); conditions: read-out: IC50 binding
[1] = molecular target: glucagon receptor (GCGR) overexpressed CHO-K1 cells or human primary hepatocytes (Homo sapiens, UniProt P47871); assay: Glucagon cAMP inhibition assay (Cisbio cAMP Dynamic 2 HTRF); conditions: read-out: IC50 cAMP

IC50 (glucagon receptor (GCGR)): 126 nM | IC50 [1]: 252 nM
SMILES: CC(C)(C)c1ccc(-c2ccc(C[C@@H](Nc3ccc(C(=O)NCCC(=O)O)cc3)C(=O)Nc3ccc(C(F)(F)F)cc3)cc2)cc1
